Source: PubChem (several laboratories)
Shown are actives, neighbours in structure and some others; about 2.1% of the full set was active somewhere.
NR1D1 modulator = modulators of Rev-erb alpha DNA binding, primary screen, biochemical, FITC-DNA, fluorescence polarization, uHTS. activity, % at 10 µM. 370,000 tested, 0.79% active. Rev-erbα–FITC-DNA binding, 90 min. AID 1259318, 2017;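 active means activity above about 14%, limit read from the data; passing the limit was not always enough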;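 further: 0% = DMSO wells with 35 nM protein and 100% = DMSO wells with 750 nM protein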
ERp5 inh = inhibitors of ERp5-driven insulin aggregation, primary screen, biochemical, turbidity, absorbance 650 nm, single point. 90 min. inhibition, % at 9.99 µM. 350,000 tested, 0.05% active. AID 651711, 2012;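 active means mean replicate inhibition above about 25%, with every replicate also reaching it, limit read from the data, passing the limit was not always enough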
PDI turbidity = inhibitors of human PDI, primary screen, biochemical, turbidity, single point, plate reader; inhibition, % at 10 µM; Protein disulfide-isomerase (Homo sapiens), P07237; PDI insulin aggregation turbidity, A650, 90 min; 350,000 tested, 0.052% active;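 active means mean inhibition across replicates of 30% or more, whatever share of single replicates reach that level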
INS-1E GSIS act = GLuc luminescence reporter in INS-1E cells, primary screen for activators of glucose-dependent secretion of insulin; INS-1E GLuc reporter insulin secretion, 2-3 h; activation, % at 16.6 µM; 370,000 tested, 0.61% active; AID 743287, 2014;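 active means lowest replicate activation of at least 40%, so every replicate reaches that level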;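 further: 0% = median of neutral control wells and 100% = median of IBMX positive control wells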
UUG fidelity = yeast start codon fidelity modulation; AID 602363; activity score, % at 18.7 µM; S. cerevisiae UUG-firefly luciferase reporter, luminescence/redox ratio; 0.13% of 350,000 active;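 active means replicate mean at a twofold rise or more, about +100% in these data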;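 further: firefly luciferase made from a UUG start codon reports start codon fidelity; reporter light over untreated wells divided by growth signal over untreated wells; some hits fall short of that in this replicate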
SMARCA2 activ = SMARCA2 (BRM) function activators, primary screen, cell-based, luminescence, high throughput. MG213 cells, MMTV-luciferase reporter, dexamethasone, overnight. activation, % at 9.1 µM. 370,000 tested, 1% active. AID 652017, 2013; in the data active means activation above about 7.8%;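 further: 0% = vehicle wells and 100% = reference activator wells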
SMARCA2 act conf = SMARCA2 (BRM) function activators, confirmation, cell-based, luminescence, triplicate. shares compounds with SMARCA2 activ. MG213 cells, MMTV-luciferase with dexamethasone, overnight; MG213 cells expressing E1A, Rb sequestered; DMSO wells 0%, reference activator 100%. activation, % at 9.1 µM. 3,500 tested, 30% active;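 active means activation above its plate's cutoff, the mean activation of tested wells plus 3 SD, cut at about 7.9% in these data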
VP16 Luc act = GAL4-VP16 luciferase reporter activation, counter-screen for SMARCA2 (BRM) activator project, cell-based, pG5luc, luminescence, high throughput | HEK293 GAL4-VP16 pG5luc reporter; scaled: DMSO wells 0%, SAHA wells 100% | shares compounds with SMARCA2 activ | activation, % at 9.1 µM | 3,500 tested, 41% active | AID 686939, 2013;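 active means activation above the solvent-only control well mean plus 3 SD, averaged across control plates, cut at about 5.2% in these data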
* hit, by the source's call; / = not tested or not shown.

Screens by letter: A = NR1D1 modulator; B = ERp5 inh; C = PDI turbidity; D = INS-1E GSIS act; E = UUG fidelity; F = SMARCA2 activ; G = SMARCA2 act conf; H = VP16 Luc act
1. O=C(Nc1ccccc1F)N[C@@H]1C=C[C@@H](CC(=O)N2CCCCC2)O[C@H]1CO
  A = /; B = -2; C = /; D = -12; E = 2; F = /; G = /; H = /
2. O=C1NC2c3c(Cl)sc(Cl)c3C(=O)C2O1 (stereo not drawn)
  A = -32; B = -9; C = 6; D = /; E = /; F = 15*; G = 9.0*; H = 1
3. O=C1NC2c3ccccc3CC2O1 (stereo not drawn)
  A = -6; B = 5; C = -1; D = /; E = -16; F = 1; G = /; H = /
4. O=C1NC2c3c(I)sc(I)c3C(=O)C2O1 (stereo not drawn)
  A = 2; B = 0; C = -6; D = /; E = /; F = 8.7*; G = -4; H = 0
5. C[C@@H]1CN([C@H](C)CO)C(=O)c2cc(NS(C)(=O)=O)ccc2O[C@@H](C)CCCCO[C@@H]1CN(C)C(=O)c1ccncc1
  A = /; B = 1; C = /; D = -3; E = 0; F = /; G = /; H = /
6. Cc1cccc(NC(=O)CN2C(=O)N/C(=C\c3ccccc3OCc3ccc(C(=O)O)cc3)C2=O)c1
  A = 6; B = -2; C = 7; D = -9; E = -13; F = 8.7*; G = 1; H = 0
7. O=C(O)c1ccccc1C1Nc2ccccc2C(=O)N1CCCN1CCOCC1 (stereo not drawn)
  A = -3; B = 4; C = -17; D = 6; E = -13; F = 12*; G = -2; H = 1
8. O=C1c2ccccc2NC(c2ccccc2)N1CCCN1CCOCC1 (stereo not drawn)
  A = 2; B = 3; C = 6; D = /; E = -13; F = -2; G = /; H = /
9. CCCNC(=O)N(C)C[C@H]1Oc2ncc(-c3ccc(OC)cc3)cc2C(=O)N([C@H](C)CO)C[C@H]1C
  A = /; B = -5; C = /; D = 12; E = -9; F = /; G = /; H = /
10. CC(/C=N/NC(=O)c1cccs1)=C\c1ccco1
  A = 0; B = 2; C = 0; D = 3; E = -2; F = 9.2*; G = 9.3*; H = 12*
11. N/C(=N\OC(=O)c1cccc(Br)c1)c1ccncc1
  A = 0; B = 3; C = -6; D = 4; E = 1; F = 8.0*; G = 7; H = 7.4*
12. CCn1c(SCC(N)=O)nc2ccccc2c1=O
  A = 2; B = -1; C = 3; D = 7; E = -22; F = 8.0*; G = -2; H = 0
13. O=C1c2cccc3cccc(c23)C(=O)N1CCN1CCN(CC(O)COCc2ccc(Cl)cc2)CC1 (stereo not drawn)
  A = -4; B = /; C = -6; D = -28; E = /; F = 8.7*; G = 8.5*; H = 5.4*
14. Cc1cccc(NC(=O)COc2ccc3c(c2)CCC3)n1
  A = 1; B = -17; C = 8; D = -8; E = /; F = 9.7*; G = 6; H = 5.5*
15. CCOc1ccc(N=C(/C(C(=O)C(=O)N2CCOCC2)=C(\O)c2ccccc2)c2ccccc2)cc1
  A = -1; B = 3; C = -17; D = 1; E = 1; F = 9.2*; G = 7; H = 6.1*
16. O=C(C[C@H]1C[C@@H]2c3cc(NS(=O)(=O)c4ccc(F)cc4)ccc3O[C@@H]2[C@@H](CO)O1)NCc1ccc(Cl)cc1
  A = /; B = -10; C = /; D = -36; E = 2; F = /; G = /; H = /
17. CCCCn1c(CN(Cc2ccccc2)Cc2ccccc2)nc2c1c(=O)n(C)c(=O)n2C
  A = 13; B = /; C = 1; D = /; E = 8; F = 9.8*; G = 0; H = 0
18. CC(C)(C)OC(=O)COc1ccc(/C=N/NC(=O)CN2CCCCC2)cc1
  A = -5; B = 1; C = -4; D = -3; E = -3; F = 14*; G = 5; H = 5.3*
19. COc1ccc(/C=N/NC(=O)CN2CCCC2)cc1
  A = 2; B = 1; C = 5; D = 7; E = 1; F = 2; G = /; H = /
20. COc1cc(C(=O)NCC(=O)NCCCSc2ccccc2)cc(OC)c1OC
  A = -1; B = 1; C = 1; D = /; E = -32; F = 8.0*; G = 0; H = 0
21. C[C@H]1CN([C@@H](C)CO)C(=O)c2cc(N(C)C)ccc2O[C@@H]1CN(C)C(=O)Nc1ccccc1
  A = /; B = /; C = /; D = -11; E = /; F = /; G = /; H = /
22. COC(=O)/C=C1\C(=O)N(c2nc3ccccc3s2)C(=S)N1c1ccc(F)cc1
  A = 3; B = 3; C = 15; D = -9; E = -26; F = 8.6*; G = 3; H = 3

Only PDI turbidity, UUG fidelity and SMARCA2 act conf, for 2 of the compounds above:
item	SMILES	PDI turbidity	UUG fidelity	SMARCA2 act conf
12	CCn1c(SCC(N)=O)nc2ccccc2c1=O	3	-22	-2
13	O=C1c2cccc3cccc(c23)C(=O)N1CCN1CCN(CC(O)COCc2ccc(Cl)cc2)CC1 (stereo not drawn)	-6	/	8.5*
